Literature values in patent US6646013B1, “Nutrient formulations for disease reduction” (Nutri-Logics, priority 1999, dated 2003).

Structure (SMILES): [Se] [selenium]
- human maximum tolerated dose (MTD) of dietary selenium (estimated): 819 μg selenium/day
- range of safety between physiological and toxic levels (humans): 10 fold
- MTD as multiple of the RDA (in vivo): 15 times the RDA
